## AlphaSeq binding of Ab-14 heavy chain variants to a spike HR2 peptide

Data: MIT Lincoln Laboratory AlphaSeq set, Engelhart et al. 2022, doi:10.1038/s41597-022-01779-4, as distributed in FLAb.

All variants were tested on one target, the spike HR2 peptide PDVDLGDISGINAS (SARS-CoV-2).

Parent: Ab-14, a human scFv built as VH, the linker GGGGSGGGGSGGGGS, VL. Only the CDRs of the heavy chain vary.
VH: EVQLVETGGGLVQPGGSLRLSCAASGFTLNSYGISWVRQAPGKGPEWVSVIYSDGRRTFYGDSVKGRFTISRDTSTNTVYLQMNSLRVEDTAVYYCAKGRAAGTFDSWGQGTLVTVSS
VL: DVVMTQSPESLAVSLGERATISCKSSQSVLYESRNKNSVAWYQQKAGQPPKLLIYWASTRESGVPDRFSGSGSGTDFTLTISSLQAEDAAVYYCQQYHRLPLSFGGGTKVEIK

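The parent was found by panning a naive human phage display library on the peptide. In library AAYL49, one, two or three CDR residues were substituted; doubles and triples were drawn at random. In AlphaSeq, yeast of one mating type display the scFv and yeast of the other type display the target. Pairs that bind mate more often; barcode pairs of the diploids are counted by sequencing. Each replicate has its own calibration line, from reference interactions of the BCL2 family. There are three technical replicates.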

Each variant is given by its three heavy chain CDRs, as the data file delimits them; those of the parent are GFTLNSYGIS, VIYSDGRRTFYGDSVK, GRAAGTFDS.
Every variant below is changed at D54 of the VH (sequential numbering).
The Kd shown is the geometric mean over detected replicates; a lower Kd is a better binder.
Where no diploid with the target was found in any replicate, the entry reads "nd": below detection, most likely a poor binder, though not proof of it.
Nonspecific signal, from three strains lacking the peptide, appeared in 15% of pairings of library AAYL49, centred on 11 µM (5% of these signals below 680 nM); values are not corrected for it.

With FFTLNSYGIS, VIYSGGRRPFYGDSVK, GRAAGTFDS the result was nd (0 of 3 replicates).
With GFFLNSYGIS, VIYSCMRRTFYGDSVK, GRAAGTFDS the result was nd (0 of 3 replicates).
With GFTLNSYGYS, VIYSVGRITFYGDSVK, GRAAGTFDS the result was 17 µM (3 of 3 replicates).
With GFTLNSYGIS, VIYSFGRRTFYGDYVY, GRAAGTFDS the result was nd (0 of 3 replicates).
With GFTLNSYGIS, VISSHGRRTNYGDSVK, GRAAGTFDS the result was 160 µM (2 of 3 replicates).
With GFTLYSYGIS, VIYSWGRRTFYGDSVK, GRAAGTFDS the result was 150 µM (2 of 3 replicates).
With GFTLNSYGIS, VIISRGRITFYGDSVK, GRAAGTFDS the result was 300 nM (1 of 3 replicates).
With GFTLNSYGIS, VVYSYGRRTFYGDSWK, GRAAGTFDS the result was nd (0 of 3 replicates).
With GFTLNPYGIS, VIYSNGRRTFYGDSVK, GRAAGTFDS the result was nd (0 of 3 replicates).
With GFTLNSYGIS, VIYSVGRRTFYGDSQK, GRAAGTFDS the result was nd (0 of 3 replicates).
With GFTLNSEMIS, VIYSHGRRTFYGDSVK, GRAAGTFDS the result was 100 µM (2 of 3 replicates).
With GFTLNSYGCS, VIYSYGRRTFYGDSVA, GRAAGTFDS the result was 800 µM (1 of 3 replicates).
With GFTLNSYQIS, VIYSAGRRTFYGDSVK, IRAAGTFDS the result was nd (0 of 3 replicates).
With GFTLNSYGIS, VIYSKGRPTFYGDSVK, GRAAGTTDS the result was nd (0 of 3 replicates).
With GFYLNSYGWS, VIYSCGRRTFYGDSVK, GRAAGTFDS the result was nd (0 of 3 replicates).
With GFTLNSYGIS, VIYWNGRRTFYGDSRK, GRAAGTFDS the result was nd (0 of 3 replicates).
With GFTLNSYGIS, VIYSFGSRTCYGDSVK, GRAAGTFDS the result was nd (0 of 3 replicates).
With GFTLNSYGIS, VIYSAGTRTHYGDSVK, GRAAGTFDS the result was nd (0 of 3 replicates).
With GFTLNSYGIS, PIYSQGRRTFYGDSVK, GRYAGTFDS the result was nd (0 of 3 replicates).
With GFTLNSYGIS, YIYSTGRRTWYGDSVK, GRAAGTFDS the result was 260 µM (3 of 3 replicates).
With GFLLNSYGIS, VIYSNGRRTFYGDSVK, GRAAGTCDS the result was 8.8 µM (1 of 3 replicates).
With GFTLNSYGIS, VQYSHGRRTFYGDSVK, GRAAGTFDS the result was nd (0 of 3 replicates).
With DFTLNSYMIS, VIYSNGRRTFYGDSVK, GRAAGTFDS the result was 32 µM (3 of 3 replicates).
With GFTLNSYGIS, VIYSFGRRTFYGDSVK, GIAAGTFDS the result was nd (0 of 3 replicates).
With GFTLNSYGIS, VIYSYGRRTFYGDSGK, GRAAETFDS the result was nd (0 of 3 replicates).
With GGTLNSYGIS, VIYSKGRRTFRGDSVK, GRAAGTFDS the result was 8.8 µM (1 of 3 replicates).
With GFGLNSYGIS, VIYSWGRRTFYGDSVK, GRAAGTFDS the result was nd (0 of 3 replicates).
With GFTLNSYGIS, VIYKWGRRTFYGDSVK, GRAAGTFDS the result was 47 µM (2 of 3 replicates).
With GFTLNSYGIS, VIYSFGRRTFYGDSDK, GRAAYTFDS the result was nd (0 of 3 replicates).
With GFTLNSYGMS, VIYSMGRRTFYGDSVK, GRAAGEFDS the result was nd (0 of 3 replicates).
With GFTLNSYGIS, VIYSWHRRTFYGDSVK, GRAAGTFDK the result was nd (0 of 3 replicates).
With GFTLNSYGIS, VIYSTGRRLFYGDSVK, DRAAGTFDS the result was nd (0 of 3 replicates).
With GFTLNSYGIS, VIYSLGRRTFYGDSVK, GREAGKFDS the result was nd (0 of 3 replicates).
With GFTLNSYQIS, VIYSCGRRTEYGDSVK, GRAAGTFDS the result was nd (0 of 3 replicates).
With GFVLNSYGIS, VIYDLGRRTFYGDSVK, GRAAGTFDS the result was nd (0 of 3 replicates).
With AFTLNSYGIS, VIYSEGRRTFYGDSVK, GRAAGTFDR the result was nd (0 of 3 replicates).
With GFTLNSYGII, VIYSIGRRTFYGDSVK, GTAAGTFDS the result was 72 µM (2 of 3 replicates).
With GFTLNSYGIS, VIYSHVRRTFYGDSVK, GRAASTFDS the result was nd (0 of 3 replicates).
With GFTLNSYGNS, VIYSVGRRTFYSDSVK, GRAAGTFDS the result was nd (0 of 3 replicates).
With GFTLNSYGES, GIYSFGRRTFYGDSVK, GRAAGTFDS the result was 9.3 µM (1 of 3 replicates).
With GFTLNSYGIN, VIYSEGRRTFYGDRVK, GRAAGTFDS the result was 4.2 µM (1 of 3 replicates).
With GFTLKSYGIS, VLYSWGRRTFYGDSVK, GRAAGTFDS the result was nd (0 of 3 replicates).
With GFTLNSYGIS, VIYSTGRRTFYGDVVK, GRAAGTNDS the result was nd (0 of 3 replicates).
With GFTLNSYGIS, VIYSMGRRTFYGDYVK, GCAAGTFDS the result was nd (0 of 3 replicates).
With GFTLNSYGFS, VIYSYGRRGFYGDSVK, GRAAGTFDS the result was nd (0 of 3 replicates).
With GYTLNSYGIS, VIHSQGRRTFYGDSVK, GRAAGTFDS the result was 250 µM (1 of 3 replicates).
With GFTLNSPGIS, VSYSEGRRTFYGDSVK, GRAAGTFDS the result was nd (0 of 3 replicates).